Antibody variant affinities, Ab-14 light chain, assay 1

The measurements come from Engelhart et al. 2022 (doi:10.1038/s41597-022-01779-4) through the FLAb antibody collection.

The target is the same throughout: PDVDLGDISGINAS, from the HR2 region of SARS-CoV-2 spike.

The variants keep the heavy chain, the linker and the frameworks of Ab-14 (scFv order VH, a 15-residue (Gly4Ser)3 linker, VL).
VH: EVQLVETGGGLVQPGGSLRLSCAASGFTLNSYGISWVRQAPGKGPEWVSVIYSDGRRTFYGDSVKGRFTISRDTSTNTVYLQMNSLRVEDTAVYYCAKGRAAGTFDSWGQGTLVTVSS
VL: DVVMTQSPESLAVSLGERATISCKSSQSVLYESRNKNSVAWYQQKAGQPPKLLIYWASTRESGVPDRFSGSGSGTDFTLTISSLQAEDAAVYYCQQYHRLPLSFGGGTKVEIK

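The parent was found by panning a naive human phage display library on the peptide. Variants in AAYL50 differ from the parent at up to three CDR positions; double and triple changes were sampled at random. AlphaSeq pools MATa yeast showing the antibodies with MATalpha yeast showing the peptide. The frequency of each diploid, read from paired DNA barcodes, reflects how well the two displayed proteins bind. Scores were corrected for input abundance and mapped to Kd with protein pairs of known affinity run in the same pool. Mating was done three times.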

Positions count from residue 1 of the parent VL; K24P puts P in place of K. This list gathers variants with a substitution at K24 (VL, numbered from residue 1). Values are apparent Kd, the geometric mean of the replicates that gave a signal; lower means stronger binding. "no signal" means that the variant was in the library but no mating with the target was seen in any replicate; the authors take this as a sign of poor binding, and no number exists. Nonspecific signal, from three strains lacking the peptide, appeared in 18% of pairings of library AAYL50, centred on 15 µM (5% of these signals below 970 nM); values are not corrected for it. For reference, the parent read 4.4 nM as the reference entry and 48 nM as a member of this library.

Variant K24P S28H R60N gave 5.1 µM (1 of 3 replicates). Variant K24R Q27Y V29W gave 6.7 nM (3 of 3 replicates). For K24M R99L L102K, the assay gave 8.4 µM (1 of 3 replicates). For K24I T59I P101A, the assay gave no signal (0 of 3 replicates). Variant K24N Y31H S62K showed 39 nM (3 of 3 replicates). Variant K24G E32N N35T gave 70 nM (3 of 3 replicates). For K24V W56P P101N, the assay gave no signal (0 of 3 replicates). Variant K24C S62Y Q96Y gave 310 nM (3 of 3 replicates). For K24C S26C R60G, the assay gave no signal (0 of 3 replicates).

Variant K24I R60V S62A gave 1.2 µM (3 of 3 replicates). With K24N S28N R99D the result was 1.6 µM (2 of 3 replicates). Variant K24G K36M E61M gave 240 nM (3 of 3 replicates). Variant K24T R60K H98W gave no signal (0 of 3 replicates). Variant K24A R34T Y97M showed 560 nM (3 of 3 replicates). With K24R W56I the result was no signal (0 of 3 replicates). With K24Y Y31N L100V the result was 8.6 nM (3 of 3 replicates). For K24F S38I Q96Y, the assay gave 130 µM (2 of 3 replicates). Variant K24A L30S S62P gave 6.9 nM (3 of 3 replicates).

With K24A R34F the result was 12 nM (3 of 3 replicates). Variant K24S Y31C S38K showed no signal (0 of 3 replicates). Variant K24C W56I gave 510 nM (3 of 3 replicates). Variant K24N S33D L100C gave 7.0 nM (3 of 3 replicates). For K24F Q96N L102N, the assay gave 59 µM (1 of 3 replicates). Variant K24I W56D S62P showed 730 pM (3 of 3 replicates). With K24D S26D E32N the result was 200 nM (3 of 3 replicates). Variant K24T S28H N37D showed 160 nM (3 of 3 replicates). Variant K24P K36V S103W showed 7.6 µM (1 of 3 replicates).

For K24F L30E W56S, the assay gave no signal (0 of 3 replicates). Variant K24L Q96P R99Q gave no signal (0 of 3 replicates). For K24W L100A S103N, the assay gave 160 nM (3 of 3 replicates). Variant K24M S58F T59D gave no signal (0 of 3 replicates). Variant K24V W56H showed 1.9 nM (3 of 3 replicates). For K24C V29Y Y97E, the assay gave 38 µM (1 of 3 replicates). For K24M A57E E61S, the assay gave 91 nM (2 of 3 replicates). With K24D S62M the result was 48 nM (3 of 3 replicates). For K24I S28W V29Q, the assay gave 200 nM (3 of 3 replicates).

Variant K24W V29H W56L gave 410 nM (3 of 3 replicates). With K24H N35F T59S the result was 93 nM (3 of 3 replicates). For K24G N37H, the assay gave 34 nM (3 of 3 replicates). Variant K24I N35S Q96N gave 510 nM (3 of 3 replicates). Variant K24Q Q27P N35D showed no signal (0 of 3 replicates). Variant K24Q R34L R60P showed 150 nM (3 of 3 replicates). For K24P Q27E E61N, the assay gave no signal (0 of 3 replicates). Variant K24A R34G S62M showed 7.7 nM (3 of 3 replicates). Variant K24H Q27P W56N gave 130 pM (3 of 3 replicates).

Top 4 of the variants detected in all replicates, tightest first:

| changes | apparent Kd | detected |
|---|---|---|
| K24H Q27P W56N | 130 pM | 3/3 |
| K24I W56D S62P | 730 pM | 3/3 |
| K24V W56H | 1.9 nM | 3/3 |
| K24R Q27Y V29W | 6.7 nM | 3/3 |